From patent publication US11718650B2, “Immunogenic peptides and their use in immune disorders” (IMCYSE SA, priority 2006, dated 2023)

Tested on: spleen CD4+ T cells
Conditions: pre-immunisation before IP Der p 2 in alum

QYIKANSKFIGITELGGCHGSEPCIIHRGKPF
production of cytokines by CD4+ spleen cells stimulated with Der p 2: reduced to undetectable concentrations
